Data taken from PubChem BioAssay AID1556 (The Scripps Research Institute Molecular Screening Center, 2009).
Only a part is listed here, and it is no random draw. Active and inactive are the calls of the source.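 Rule for the calls: active = inhibition above the mean plus 3 SD of all compounds in the same screening run (cut at about 4.5% in these data); inactive = the rest.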

System: metallo-beta-lactamase IMP-1 (Pseudomonas aeruginosa)
Assay: inhibition of IMP-1 nitrocefin hydrolysis – biochemical, epi-absorbance readout, Pseudomonas aeruginosa enzyme, primary screen (AID 1556);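 note: 0% = IMP-1 with DMSO and 100% = DMSO wells lacking enzyme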
Conditions: purified IMP-1, nitrocefin hydrolysis, epi-absorbance fluorescence; at 5.6 µM; active compounds read high

| SMILES | inhibition |
| --- | --- |
| CP(=O)(Nc1ccccc1)Oc1ccc(F)cc1 (centres undefined) | inactive: -3.4% |
| O=[N+]([O-])c1cc([N+](=O)[O-])c(OC2CCCCC2O)c([N+](=O)[O-])c1 (centres undefined) | inactive: -2.8% |
| CCCCCOc1ccc(NP(C)(=O)Oc2ccc(Cl)cc2Cl)cc1 (centres undefined) | inactive: 0.16% |
| CCN(CC)CCCOC(=O)C(O)(c1ccccc1)C1CCCCC1 (centres undefined) | inactive: -0.15% |
| CCOC(=O)c1ccc(NP(C)(=O)Oc2ccc(F)cc2)cc1 (centres undefined) | inactive: -1.97% |
| COc1ccc(OP(C)(=O)Nc2ccc(SC(F)(F)F)cc2)cc1 (centres undefined) | inactive: 0.08% |
| O=C(OC1CN2CCC1CC2)c1ccc([N+](=O)[O-])cc1 (centres undefined) | inactive: -1.7% |
| O=C(OCCN1CCN(CCOCc2ccccc2)CC1)C(O)(c1ccccc1)c1ccccc1 | inactive: 0.24% |
| CP(=O)(Nc1ccccc1F)Oc1ccccc1 (centres undefined) | inactive: -3.28% |
| CC(C)c1ccc(OP(C)(=O)Nc2ccc(SC(F)(F)F)cc2)cc1 (centres undefined) | inactive: -1.12% |
| Cc1ccccc1NP(C)(=O)Nc1ccccc1C | inactive: -2.75% |
| CP(=O)(Nc1ccc2c(c1)OCCO2)Oc1ccccc1 (centres undefined) | inactive: -2.51% |
| CCOP(C)(=S)SCC(=O)NC(C)(CC)C(=O)O (centres undefined) | inactive: -1.54% |
| CP(=O)(Nc1ccc(SC(F)(F)F)cc1)Oc1ccc(F)cc1 (centres undefined) | inactive: -2.86% |
| O=[N+]([O-])c1ccc(OP2(=O)COCCO2)cc1 (centres undefined) | inactive: -3.14% |
| O=[N+]([O-])c1cc([N+](=O)[O-])c(NCC2CCS(=O)(=O)C2)c([N+](=O)[O-])c1 (centres undefined) | inactive: -1.93% |
| Cc1cc(-c2cccc3ccccc23)c(C)cn1.O=[N+]([O-])c1cc([N+](=O)[O-])c(O)c([N+](=O)[O-])c1 | inactive: -2.48% |
| CN(C)CCOC(=O)C(O)(c1ccccc1)C1CCCCC1 (centres undefined) | inactive: -3.09% |
| COc1ccc(NP(C)(=O)Oc2ccccc2OC)cc1 (centres undefined) | inactive: 0.1% |
| COc1ccc(OP(C)(=O)Nc2cccc(Br)c2)cc1 (centres undefined) | inactive: -1.7% |
| CCOC(=O)c1ccc(NP(C)(=O)Oc2ccc(Cl)cc2)cc1 (centres undefined) | inactive: -2.18% |

| SMILES | inhibition |
| --- | --- |
| CP(=O)(OC12CC3CC(CC(C3)C1)C2)OC12CC3CC(CC(C3)C1)C2 | inactive: -4.61% |
| CN(C)C(=O)c1c([N+](=O)[O-])cc([N+](=O)[O-])cc1[N+](=O)[O-] | inactive: -2.88% |
| CC(C)(C)c1ccc(OP(C)(=O)O)cc1 | inactive: -2.58% |
| COc1ccccc1OP(C)(=O)Nc1ccccc1Br (centres undefined) | inactive: -1.95% |
| CP(=O)(Nc1ccc(Cl)cc1)Oc1ccc(F)cc1 (centres undefined) | inactive: -2.93% |
| O=C(OCCCN1CCCC1)C(O)(c1ccccc1)C1CCCCC1 (centres undefined) | inactive: -1.09% |
| COc1ccccc1OP(C)(=O)Nc1c(C)n(C)n(-c2ccccc2)c1=O (centres undefined) | inactive: -1.17% |
| CCc1ccc(OP(C)(=O)Nc2cccnc2)cc1 (centres undefined) | inactive: 1.05% |
| CP(=O)(Oc1ccccc1)N1CCOC1=O (centres undefined) | inactive: -2.63% |
| COc1ccc(OP(C)(=O)Nc2ccc(Br)cc2)cc1 (centres undefined) | inactive: -2.93% |
| CCN(CC)CC(O)COC(=O)C(O)(c1ccccc1)C1CCCCC1 (centres undefined) | inactive: -4.35% |
| COc1ccccc1OP(C)(=O)Nc1ccc(C)cc1C (centres undefined) | inactive: -2.68% |
| CP(=O)(Nc1ccccn1)Oc1ccccc1 (centres undefined) | inactive: -3.3% |
| CCc1ccc(OP(C)(=O)O)cc1 | inactive: -2.71% |
| O=[N+]([O-])c1cc([N+](=O)[O-])c(Nc2ccccn2)c([N+](=O)[O-])c1 | inactive: -1.28% |
| Cc1c(NP(C)(=O)Oc2ccc(C(C)C)cc2)c(=O)n(-c2ccccc2)n1C (centres undefined) | active: 4.95% |
| COc1ccc(OP(C)(=O)Nc2ccccn2)cc1 (centres undefined) | inactive: -3.92% |
| CN(C)CCOC(=O)C(O)(c1ccccc1)C1CCCC1 (centres undefined) | inactive: -3.21% |
| COc1ccccc1OP(C)(=O)Nc1ccc(Br)cc1 (centres undefined) | inactive: -2.42% |
| CP(=O)(OCCOc1ccccc1)OCCOc1ccccc1 | inactive: -2% |
| CP(=O)(Nc1ccc(Cl)cc1Cl)Oc1ccccc1 (centres undefined) | inactive: -1.59% |

| SMILES | inhibition |
| --- | --- |
| Cc1nc2ccc3ccccc3c2o1.O=[N+]([O-])c1cc([N+](=O)[O-])c(O)c([N+](=O)[O-])c1 | inactive: -5.44% |
| COc1ccccc1OP(C)(=O)Nc1ccc(C)c(C)c1 (centres undefined) | inactive: -3.7% |
| COc1ccc(OP(C)(=O)Nc2ccccc2Br)cc1 (centres undefined) | inactive: -3.12% |
| Cc1cc(C)cc(OP(C)(=O)Nc2cccc(C(F)(F)F)c2)c1 (centres undefined) | inactive: -2.19% |
| Cc1cc(C)cc(OP(C)(N)=O)c1 (centres undefined) | inactive: -2.37% |
| COc1ccc(OP(C)(=O)Nc2cccc(F)c2)cc1 (centres undefined) | inactive: -5.03% |
| COc1ccccc1OP(C)(=O)Nc1cc(Cl)ccc1C (centres undefined) | inactive: -1.38% |
| Cc1ccc(NP(C)(=O)Oc2ccccc2)c(C)c1 (centres undefined) | inactive: -1.78% |
| COc1ccccc1OP(C)(=O)Nc1ccc(C)cc1 (centres undefined) | inactive: -1.35% |
| CCOC(=O)c1ccc(NP(C)(=O)Oc2ccccc2)cc1 (centres undefined) | inactive: -2.9% |
| O=[N+]([O-])c1ccc2c(c1)C=Nc1ccccc1O2 | inactive: -0.8% |
| Cc1cccc(C)c1OP(C)(N)=O (centres undefined) | inactive: -2.56% |
| CC(C)(C)c1ccc(OP(C)(=O)Nc2ccc(SC(F)(F)F)cc2)cc1 (centres undefined) | inactive: -2.44% |
| CCN(CC)CCCOC(=O)C(O)(c1ccccc1)c1ccccc1 | inactive: -4.34% |
| CP(=O)(Nc1ccccn1)Oc1ccc(Cl)cc1 (centres undefined) | inactive: -4.06% |
| CCOC(=O)c1ccc(NP(C)(=O)Oc2ccc(OC)cc2)cc1 (centres undefined) | inactive: -2.44% |
| CCOP(C)(=S)SCC(=O)NC(C)C(=O)O (centres undefined) | inactive: -2.54% |
| Cc1cc(C)cc(OP(C)(=O)Nc2ccc(SC(F)(F)F)cc2)c1 (centres undefined) | inactive: -1.75% |
| CCc1ccc(OP(C)(=O)N2CCN(c3ccc([N+](=O)[O-])cc3)CC2)cc1 (centres undefined) | inactive: -3.77% |
| CP(=O)(NC(=O)Nc1ccccc1)Oc1ccccc1 (centres undefined) | inactive: -2.23% |
| CP(=O)(Oc1ccccc1)OC(c1ccccc1)C(F)(F)F (centres undefined) | inactive: -1.04% |

| SMILES | inhibition |
| --- | --- |
| CP(=O)(Nc1ccc(SC(F)(F)F)cc1)Oc1ccc(Cl)cc1 (centres undefined) | inactive: -2.38% |
| Cc1cccc(C)c1OP(C)(=O)Nc1ccc(SC(F)(F)F)cc1 (centres undefined) | inactive: 2.57% |
| CP(=O)(Nc1ccccc1Br)Oc1ccccc1 (centres undefined) | inactive: -1.3% |
| COc1ccccc1OP(C)(=O)Nc1ccccc1 (centres undefined) | inactive: -2.66% |
| CP(=S)(Nn1cnnc1)Oc1ccccc1 (centres undefined) | inactive: -1.79% |
| CP(=O)(Nc1ccc(SC(F)(F)F)cc1)Oc1ccccc1 (centres undefined) | inactive: -2.2% |
| CCCOc1ccc(NP(C)(=O)Oc2ccc(Cl)cc2)cc1 (centres undefined) | inactive: -1.33% |
| CN1CCCCC1COC(=O)C1(O)c2ccccc2CCc2ccccc21 (centres undefined) | inactive: -1.86% |
| COc1ccccc1OP(C)(=O)Nc1c(C)cccc1C (centres undefined) | inactive: -2.81% |
| CCOC(=O)C(CC)C1=NC(C)(C)Cc2ccccc21.O=[N+]([O-])c1cc([N+](=O)[O-])c(O)c([N+](=O)[O-])c1 (centres undefined) | inactive: -1.73% |
| O=[N+]([O-])c1cc([N+](=O)[O-])c(Nc2nnnn2CCO)c([N+](=O)[O-])c1 | inactive: -4.05% |
| Cc1nc2ccc3ccccc3c2s1.O=[N+]([O-])c1cc([N+](=O)[O-])c(O)c([N+](=O)[O-])c1 | active: 19.2% |
| O=[N+]([O-])c1cc([N+](=O)[O-])c(-n2nnc3ccccc32)c([N+](=O)[O-])c1 | inactive: -3.67% |
| Cc1ccc(C)c(NP(C)(=O)Oc2ccccc2)c1 (centres undefined) | inactive: -2.05% |
| CP(=O)(Nc1cccc(Br)c1)Oc1ccccc1 (centres undefined) | inactive: -2.76% |
| Cc1cc(C)cc(OP(C)(=O)Nc2ccccn2)c1 (centres undefined) | inactive: -2.07% |
| CCOC(=O)c1ccc(NP(C)(=O)Oc2cc(C)cc(C)c2)cc1 (centres undefined) | inactive: -3.25% |
| Cc1cc(C)cc(OP(C)(=O)Nc2ccc(C)cc2C)c1 (centres undefined) | inactive: -0.3% |
| COc1ccccc1OP(C)(=O)Nc1cccc(Br)c1 (centres undefined) | inactive: -4.95% |
| CC1=NCCc2c1[nH]c1ccccc21.O=[N+]([O-])c1cc([N+](=O)[O-])c(O)c([N+](=O)[O-])c1 | inactive: -3.3% |
| O=C(O)c1cccc(Nc2c([N+](=O)[O-])cc([N+](=O)[O-])cc2[N+](=O)[O-])c1 | inactive: 0.64% |
